# Earlier results in patent US20180079906A1, “AZACYANINE DYES AND USE THEREOF” (Ecole Polytechnique Fédérale de Lausanne (EPFL), priority 2016, published 2018).
# Settings: in water; cited from earlier work
smiles,measurement,value
"CC1(C)C(/C=C/C=C/C=C/C=C2\N(CCCCS(=O)(=O)O)c3ccc4ccccc4c3C2(C)C)=[N+](CCCCS(=O)(=O)[O-])c2ccc3ccccc3c21 [ICG, Indocyanine Green]",solubility,1200 µM
